The target in assay [1] is T1, human GHSR1a receptor (Homo sapiens, UniProt Q92847). The assay can be described thus: Inositol 1 phosphate (IP-1) inverse agonist assay. The settings on record: IP-1 assay. As to the method: (§1) The compounds were diluted with 100% DMSO to make 30 mM stock. On the test day, serial dilutions were prepared starting from the stock solution. For the FLIPR assay: 1) 8 μl of DMSO was added to 2 μl of compound stock solution (30 mM) to produce 10 μl of 6 mM solution; half-fold serial dilutions of the 6 mM solution were produced to generate ten doses; 2) test solutions were obtained by diluting the stock solutions 1/40 in assay buffer (DMSO concentration 2.5%). For the IP-1 assay: 1) 29 μl of DMSO was added to 1 μl of compound stock solution (30 mM) to produce 30 μl of 1 mM solution; half-fold serial dilutions of the 1 mM solution were produced to generate 10 doses; 2) test solutions were obtained by diluting the stock solutions 1/100 in assay buffer (DMSO final concentration 1%).
For the inverse agonist activity study, the same procedure described above was followed up to the day of the test. On the test day, the medium was removed by centrifuging at 700 rpm for 30 seconds and 20 μl/well of assay buffer containing the HM04 or R011 was added. The assay plates were incubated at 37° C. in the dark for 1 hour. IP1-d2 (5 μl) and AB-Cryp (5 μl) were sequentially added to all wells using multidrop Combi. The plate was incubated at room temperature for 1 hour and read on EnVision at 620 nm and 665 nm.

Chains of the proteins cited; added tags and fusions are not shown.
UniProt Q92847, whole entry: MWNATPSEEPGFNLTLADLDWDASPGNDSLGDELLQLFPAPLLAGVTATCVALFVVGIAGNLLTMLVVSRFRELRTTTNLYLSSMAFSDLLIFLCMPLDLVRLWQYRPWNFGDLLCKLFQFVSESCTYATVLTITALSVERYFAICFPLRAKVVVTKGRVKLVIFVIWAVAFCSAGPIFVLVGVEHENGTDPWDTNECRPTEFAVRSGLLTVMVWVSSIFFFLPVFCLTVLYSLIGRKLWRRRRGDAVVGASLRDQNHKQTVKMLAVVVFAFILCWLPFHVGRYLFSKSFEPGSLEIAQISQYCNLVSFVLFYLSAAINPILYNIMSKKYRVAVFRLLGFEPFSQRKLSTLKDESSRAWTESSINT

The target in assay [2] is T1, human GHSR1a receptor. As to the kind of experiment: Agonist FLIPR assay in HEK293 cells. The following applies: FLIPR agonist mode, concentrations up to 10 μM. As to the method: as §1
(§2) For the agonist and antagonist activity study, HEK293 cells stably expressing human GHSR1a receptor were used in a (FLIPR) assay. […] Fluorescence signal was detected with FLIPR at room temperature according to standard settings for 10 minutes before cells were exposed to 10 μl of 5× working concentrations of agonists (compound added by FLIPR). The fluorescence signal was detected in the subsequent 3 minutes (antagonist mode).

Assay [3] deals with ghrelin-induced increase of GH. The assay can be described thus: Ghrelin-induced increase of growth hormone in rats. The settings on record: 10 mg/kg R011 i.p. 30 minutes before 15 μg/kg ghrelin i.v., 15 minutes after ghrelin. Here is the method:
Rats were divided into four groups: 1) 1 ml/kg saline plus 10 ml/kg 0.5% CMC p.o. (n=6); 2) 15 μg/kg ghrelin i.v. plus 10 ml/kg 0.5% CMC p.o. (n=6); 3) 30 mg/kg HM04 fumarate salt p.o. 2 hours before 15 μg/kg ghrelin i.v. (n=6); 4) 10 mg/kg ghrelin antagonist R011 i.p. 30 minutes before 15 μg/kg ghrelin i.v. (n=6). Blood was collected as 100 μl samples at time 0 and at 15 minutes after ghrelin injection. Rats were anesthetized with 64.8 mg/kg sodium pentobarbital. A catheter filled with heparinized saline solution was inserted in the left femoral artery for blood collection and fitted with an extension tube, 1-mL sampling syringe, and a 3-way cock to allow excess blood to return.
Plasma levels of growth hormone (GH) were determined using Rat GH ELISA (Millipore, Catalog No. EZRMGH-45K). Measurements were performed in duplicate. GH AUC 0-15 min was calculated using the trapezoidal method. One-way and two-way ANOVA test was used to compare differences between groups. All values are presented as mean±SEM. One-way ANOVA was performed followed by Turkey's post hoc test where significance was indicated by p values<0.05 or p values<0.01.

For assay [4], the target named is T1, human GHSR1a receptor. As to the kind of experiment: Antagonist FLIPR assay in HEK293 cells. The following applies: read-out: antagonist activity on GHSR1a, IC50, HEK293 cells expressing human GHSR1a, in duplicate, HM04 tested as fumarate salt. As to the method:
The compounds were diluted with 100% DMSO to make 30 mM stock. On the test day, serial dilutions were prepared starting from the stock solution. For the FLIPR assay: 1) 8 μl of DMSO was added to 2 μl of compound stock solution (30 mM) to produce 10 μl of 6 mM solution; half-fold serial dilutions of the 6 mM solution were produced to generate ten doses; 2) test solutions were obtained by diluting the stock solutions 1/40 in assay buffer (DMSO concentration 2.5%). […]
as §2
Data were reported as relative light units (RLUs) and analyzed using GraphPad Software Inc. version 6. The half maximal inhibitory concentration (IC50) measured for HM04 and R011 were calculated by non-linear regression analysis.

For orientation: IC50 means the concentration needed to halve the response being measured. With `CCCCNC(=O)N1CCc2c([nH]c3ccc(OC)cc23)C12CCN(CCOc1ccccc1)C2` (stereo not shown), on human GHSR1a receptor [1], the inverse agonist activity result is on record as “did not show a clear significant inverse agonist activity”. In addition, the agonist activity result on human GHSR1a receptor [2] is given as “No agonist activity was observed”. Also, the “inhibition of ghrelin-induced increase of GH” value in assay [3] turned out to be 78%. For the same compound, at human GHSR1a receptor [4], the IC50 came to 0.343 µM.
